Among the data in US20110070376A1 (priority 2002, published 2011) are MIC values, retold here.

The subject of the test is E. coli ATCC#8739. Briefly: Minimal inhibitory concentration in a 96-well plate assay, Example 34. As to conditions: 37° C., 24 hours, highest tested 5000 μg/ml.
Consider Cobalt(II) chloride hexahydrate, for which the minimum inhibitory concentration (MIC) was determined as 625 µg/mL.

Copper(II) carbonate showed an MIC of 5000 µg/mL.

Regarding Copper(II) sulfate, the MIC was determined as 625 µg/mL.

The MIC is the lowest concentration found to suppress growth. A high value points to a less susceptible organism.
